Experiments:
[1] = tested on: GPS genomic biomarker signature (200 genes) in MUTZ-3 cells; assay: GARD assay for skin sensitizers (GARD Prediction Signature, GPS)
[2] = tested on: GRPS genomic biomarker signature (389 transcripts) in MUTZ-3 cells; assay: GARD assay with GARD Respiratory Prediction Signature (GRPS), SVM classification of respiratory sensitizers; conditions: replicate stimulation 2; 24 h at GARD input concentration; independent test dataset; > 0 = respiratory sensitizer

SMILES: NCCN [Ethylenediamine]
- Prediction in the GARD assay (skin sensitization) [1]: accurately predicted as skin sensitizers

SMILES: OCC=Cc1ccccc1 [Cinnamyl alcohol]
- SVM decision value 2 [2]: −1.44

Source: PMC4356558, “Prediction of Chemical Respiratory Sensitizers Using GARD, a Novel In Vitro Assay Based on a Genomic Biomarker Signature” (PLoS ONE, 2015)
